From patent US10815241B2, “Optically active azabicyclo ring derivative” (priority 2018, dated 2020)

Protein sequences, listed by entry. Tags and fused reporters are not part of them.
UniProt Q12809, whole entry: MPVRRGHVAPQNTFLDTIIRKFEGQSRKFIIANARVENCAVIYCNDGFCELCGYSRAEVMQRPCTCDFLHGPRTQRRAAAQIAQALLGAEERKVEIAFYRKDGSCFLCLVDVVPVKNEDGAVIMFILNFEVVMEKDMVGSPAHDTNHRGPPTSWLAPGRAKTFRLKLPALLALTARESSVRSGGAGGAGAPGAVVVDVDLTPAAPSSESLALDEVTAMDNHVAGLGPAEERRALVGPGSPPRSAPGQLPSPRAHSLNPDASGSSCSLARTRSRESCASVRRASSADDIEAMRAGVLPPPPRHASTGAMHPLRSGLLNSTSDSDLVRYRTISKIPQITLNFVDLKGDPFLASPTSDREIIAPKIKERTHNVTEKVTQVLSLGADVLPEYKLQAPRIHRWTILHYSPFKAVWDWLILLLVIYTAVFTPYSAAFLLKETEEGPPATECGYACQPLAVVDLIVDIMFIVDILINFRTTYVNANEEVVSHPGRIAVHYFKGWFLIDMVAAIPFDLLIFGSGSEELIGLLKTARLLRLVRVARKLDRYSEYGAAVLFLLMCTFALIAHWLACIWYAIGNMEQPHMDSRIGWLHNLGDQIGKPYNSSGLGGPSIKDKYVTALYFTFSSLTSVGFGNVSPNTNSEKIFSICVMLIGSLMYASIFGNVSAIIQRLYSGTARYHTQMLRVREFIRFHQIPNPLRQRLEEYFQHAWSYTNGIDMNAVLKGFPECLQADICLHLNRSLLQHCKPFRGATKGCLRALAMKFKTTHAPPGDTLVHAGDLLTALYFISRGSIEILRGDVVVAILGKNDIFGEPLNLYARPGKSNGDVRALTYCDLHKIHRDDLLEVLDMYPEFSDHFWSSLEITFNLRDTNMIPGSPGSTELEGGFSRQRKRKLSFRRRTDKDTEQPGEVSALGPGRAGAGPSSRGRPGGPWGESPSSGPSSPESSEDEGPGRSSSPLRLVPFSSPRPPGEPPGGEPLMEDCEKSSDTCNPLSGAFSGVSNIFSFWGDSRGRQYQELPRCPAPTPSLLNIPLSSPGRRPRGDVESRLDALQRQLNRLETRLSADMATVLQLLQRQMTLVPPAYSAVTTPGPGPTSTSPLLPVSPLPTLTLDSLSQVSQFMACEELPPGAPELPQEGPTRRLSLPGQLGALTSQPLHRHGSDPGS

Key:
Format in all cases: cell-based
RS4; 11 cells = test: Test 2: inhibition of cell proliferation, RS4;11; conditions: read-out: IC50 RS4, 7 days, PrestoBlue cell viability
MOLM-13 cells = test: Test 2: inhibition of cell proliferation, MOLM-13; conditions: read-out: IC50 MOLM-13, 7 days, PrestoBlue cell viability
[1] = molecular target: hERG (human Ether-a-go-go Related Gene) (Homo sapiens (Human), UniProt Q12809); test: Test 4: hERG inhibition (QPatch HT, CHO cells stably expressing hERG); conditions: read-out: hERG inhibition IC50, hERG current

## CC(C)N(C(=O)c1cc(F)ccc1Oc1cncnc1N1CC2(CCN(C(=O)[C@H]3N[C@H]4CC[C@@H]3[C@H](O)C4)CC2)C1)C(C)C
RS4; 11 cells
  IC50: > 3000 nM
MOLM-13 cells
  IC50: 1600 nM
[1]
  IC50: > 100000 nM
